US20060094693A1, “Methods and compositions for treating glucose-associated conditions, metabolic syndrome, dyslipidemias and other conditions” (Point Therapeutics, Inc., priority 2004, published 2006)

By UniProt entry, the sequences of proteins in these tests, tags left out. Residues count along the entry.
UniProt P27487, 39-766 limits assumed: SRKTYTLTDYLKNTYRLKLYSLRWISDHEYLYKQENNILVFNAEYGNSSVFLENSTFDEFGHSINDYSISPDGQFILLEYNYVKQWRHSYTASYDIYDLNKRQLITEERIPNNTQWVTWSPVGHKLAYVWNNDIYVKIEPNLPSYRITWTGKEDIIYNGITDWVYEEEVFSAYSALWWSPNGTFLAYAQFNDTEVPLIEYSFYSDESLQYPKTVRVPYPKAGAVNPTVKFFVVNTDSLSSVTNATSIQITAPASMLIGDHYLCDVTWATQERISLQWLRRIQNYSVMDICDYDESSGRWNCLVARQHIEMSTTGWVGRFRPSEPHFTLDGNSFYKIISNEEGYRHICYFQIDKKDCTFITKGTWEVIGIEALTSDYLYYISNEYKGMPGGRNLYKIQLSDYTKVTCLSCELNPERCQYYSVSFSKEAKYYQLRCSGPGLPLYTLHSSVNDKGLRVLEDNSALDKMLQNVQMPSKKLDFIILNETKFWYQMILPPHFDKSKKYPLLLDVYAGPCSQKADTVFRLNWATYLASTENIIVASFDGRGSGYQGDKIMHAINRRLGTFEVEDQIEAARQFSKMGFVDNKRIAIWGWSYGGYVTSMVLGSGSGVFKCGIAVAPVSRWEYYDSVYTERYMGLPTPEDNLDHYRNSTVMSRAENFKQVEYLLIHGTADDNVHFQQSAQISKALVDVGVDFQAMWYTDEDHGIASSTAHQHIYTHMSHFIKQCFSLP

Target: T1, soluble recombinant human DPP-IV (Homo sapiens, UniProt P27487)
T1 construct: immunoglobulin kappa light chain secretion signal (pSecTag2-B) (N, cleaved yes); made in house; host or cells: 293T cells, transient transfection; unpurified culture supernatant used
Experiment: In vitro assay of enzymatic activity of recombinant soluble DPP-IV and inhibition by amino boronic dipeptides
Assay type: biochemical
Conditions: assayed 3 minutes, 78 minutes and 16 hours after addition of Ala-Pro-AFC
Text: Production of soluble recombinant human DPP-IV. Based on information on the N-terminus of serum DPP-IV (15), a truncated DPP-IV was engineered in which a signal/leader sequence was joined to the residue in DPP-IV corresponding to the N-terminus of serum DPP-IV to allow secretion. The cDNA encoding the desired truncated human DPP-IV dimer enzyme was engineered into the mammalian secretion vector pSecTag2 (Cat# V900-20, InVitrogen Corporation). The vector, available in A, B or C versions, representing three possible phases for gene fusion, contained an immunoglobulin-kappa light chain secretion signal followed by a selection of restriction sites for gene insertion. […]
In vitro assay of enzmatic activity ofrecombinant soluble DPP-IV and inhibition by amino boronic dipeptides. […] The reaction mixture was incubated at room temperature, and production of the fluorescent AFC product was measured in a fluorometer (excitation, 400 nm; emission 505 nm), either by continuous monitoring or after termination with a one to one-tenth volume of 1 -M sodium acetate, pH 4.5. Fluorometric reading were made with a Molecular Dynamics Spectra Max GeminiXS capable of reading 96-well microtiter plates. […]

CC(C)[C@H](N)C(=O)N1CCC[C@H]1B(O)O [Val-boroPro]
persistence of DPP-IV inhibition after preincubation: sustained DPP-IV inhibition
